# scFv variants of Ab-14 (light chain) against a SARS-CoV-2 spike peptide

Target peptide (SARS-CoV-2 spike, HR2 region): PDVDLGDISGINAS

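Phage display of a naive human antibody library on the peptide gave the parent. This is the validation round: designs drawn from the data on random variants, tested in the same kind of assay. Several design methods are mixed in this list. The assay is AlphaSeq: two haploid yeast populations carry antibody and antigen on their surface. The frequency of each diploid, read from paired DNA barcodes, reflects how well the two displayed proteins bind. Each replicate has its own calibration line, from reference interactions of the BCL2 family. The assay was run in six technical replicates.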

The variants keep the heavy chain, the linker and the frameworks of Ab-14 (scFv order VH, a 15-residue (Gly4Ser)3 linker, VL).
VH: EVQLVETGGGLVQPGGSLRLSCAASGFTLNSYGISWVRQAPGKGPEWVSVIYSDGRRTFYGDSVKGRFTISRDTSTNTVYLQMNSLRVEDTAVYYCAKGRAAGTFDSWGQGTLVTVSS
VL: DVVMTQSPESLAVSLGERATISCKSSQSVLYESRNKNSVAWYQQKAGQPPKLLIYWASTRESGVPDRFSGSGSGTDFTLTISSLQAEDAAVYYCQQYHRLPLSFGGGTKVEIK

Each variant is given by its three light chain CDRs, as the data file delimits them; those of the parent are KSSQSVLYESRNKNSVA, WASTRES, QQYHRLPLS. The read-out is the apparent dissociation constant on a log10 scale (nM): the lower, the stronger. Averages over replicates are reported, and they cover detected replicates only. "no signal" marks a missing value. The strain was present, yet no cells mated with the target were sequenced in any replicate, which points to weak or no binding. The list is sorted by this average, lowest first, undetected variants last.

"log10 Kd (nM), mean",seen in,CDR-L1,CDR-L2,CDR-L3
-0.55,6 of 6,KQSQAVPYEQRNKNNVA,EGSTRES,QQYHRLPLS
-0.53,6 of 6,KLSQSVLYESRNKNSVA,NAGTRES,QQYHRLPLS
-0.33,6 of 6,KLSQSVLYQSRNKNSVA,NASQRES,QQYHRLPLS
-0.30,6 of 6,KLRQSLLYESRNPNSVA,EASTRES,QQYHRLPLS
-0.26,6 of 6,KVYPSELYESRNKNSVA,QASTRES,QQYHRLPLS
-0.24,6 of 6,TIADLMGHISKNMNNVA,DMDTRGE,QQYNRLPLS
-0.18,6 of 6,KSSQSVAMESRNKNSVA,DASTRES,QQYHRLPLS
-0.17,6 of 6,KLSQSVLYEDRVKNSVA,NASTRES,QQYHRLPLS
-0.17,6 of 6,KLSQSELYESRNKNSVA,EASTRYS,QQYHRLPLS
-0.15,6 of 6,KCKQSSDYESRNKNSVA,NASTREV,QQYHRLPLS
-0.12,6 of 6,KLMQSVQYESRNKNSVA,NASTRES,QQYHRLPLS
-0.09,6 of 6,KLSQSELYESRNSNSVA,NASYRES,QQYHRLPLS
-0.03,6 of 6,KSSIGYLYESRNKNSVA,EASTREQ,QQYHRLPLS
0.00,6 of 6,KLQQSMLYESRWQNSVA,QASQREV,QQYHRLPLS
0.00,12 of 12,HSSQSVLYESRNKNSVA,DASTRES,QQYHRLPLS
0.01,6 of 6,SIGGAMKSSYAHRNSVA,DMTNRED,QQYDRLPLS
0.03,6 of 6,SIGGFMKSLSAHINSVA,DMTNRED,QQYDRLPLS
0.04,6 of 6,KLQQSVDYESRNKNSVA,NASTRED,QQYHQLPLS
0.04,6 of 6,KIEQSVLYESRNKNSVA,NASTRMS,QQYHRLPLS
0.07,6 of 6,KVSQSVLYESRLKNSVA,NASTRES,QQYHRLPLS
0.08,6 of 6,KLAMYTGHMSVSKNNVA,EMETRMN,QQYDRLPLS
0.09,6 of 6,QISGITGHMSMLKNNVA,EMETREN,QQYDRLPLA
0.09,6 of 6,KLQQSQEYESRNKNSVA,NASTRLS,QQYHRLPLS
0.11,6 of 6,KMSQSFLMEMRNGNSVA,NASKRES,QQYHRLPLS
0.11,6 of 6,SLMQYGGYESNAHNSIA,DLRTRES,QQYHRLPLS
0.12,6 of 6,KLSQSQLYESRNTKSVA,NASTRVS,QQYHRLPLS
0.16,6 of 6,KIEGSMLYESRNKNSVA,NASTREV,QQYHRLPLS
0.17,6 of 6,KLWAYTQGLERNMQNIA,DGIYRVT,QQYDRLPLS
0.22,6 of 6,KSSQSVLTESRNFNSVA,AASTRES,QQYHRNPNS
0.26,6 of 6,KLQQMWLYGSRNANSVA,NASQREE,QQYHRLPLS
0.32,6 of 6,KVPQSGLYESRNKNSVA,EASTRES,QQYHRLPLS
0.35,6 of 6,KSSQSVLKESRNKNSVA,DASTRES,QQYHRLPLS
0.43,6 of 6,TLGGVTSYEMENKNSVA,QMTTRES,QQYHRLPLS
0.45,6 of 6,HSSPSVFYESRNKNSVA,NASTREE,QDYHRLPLS
0.46,6 of 6,QGDMFENYQGNQNASIA,GTTNRLT,QQYQKLPLS
0.46,6 of 6,KLMQSSLYDSRNKNSVA,QASTREW,QQYHRLPLS
0.46,6 of 6,KSSQSVLYESTNENSVA,DASTRES,QQYHRLPLS
0.48,6 of 6,KLSQSYLYESRNKNSVA,NASTRES,QDYHRLPLS
0.50,6 of 6,HLEMKVGGVQAVGYSVA,HASQRQA,QQYYQLPLT
0.51,6 of 6,KLSQHVEYESRLKNSVA,NASTRLE,QQYHRLPLS
0.57,6 of 6,KLSQSWLYESRNKNSVA,DASQRES,QQYHRLPLS
0.59,6 of 6,KLSMSVDYMSATHSSVA,QTSTREE,QQYHRLPLM
0.59,6 of 6,KLSQSVEYESRLKNNVA,NASQRLE,QQYHRLPLS
0.62,6 of 6,KITHQMRTGMAQRNAMA,NGAMRNE,QFYSRLPLF
0.64,6 of 6,NLMSGMSELSVWKYSIA,SASIRGS,QQYFRLPLL
0.67,6 of 6,KLSMVTNSEHKVKNSIA,EMVTREK,QQYDRLPLI
0.73,6 of 6,KLQQSQLYEWRNMNSVA,NASTREM,QQYHRLPLI
0.75,6 of 6,QVFFDLFEQGKRSQPIA,GGSMRET,QQYARLPLV
0.76,6 of 6,KISQSVLYESDLKNSVA,WASTRES,QQYHRLPLS
0.86,6 of 6,KLQLNVVDGWAMHRNIA,GDNHRAD,QQYYNLPLM
0.91,6 of 6,ALSQSMDMTSRNMNSVA,DLSTREN,QQYHRLPLS
0.93,6 of 6,RMDMALPHAHNNVNSIA,EGAMVAD,QQYDRLPLW
0.97,6 of 6,TLHGNIQYGGIMWSSIA,DNVQRAN,QQYTRLPLS
0.99,6 of 6,KITATMRFEQKISNNIA,EVTLRSK,QQYYRLPLS
1.14,6 of 6,KLRQLMHIESFNKNNVA,EMTMREK,QSYDRLPLS
1.35,6 of 6,KLSQEVLYESRNKNSVA,WASTRES,QQYHWLPLS
1.44,6 of 6,HMSMLTLSGQRHRNAVA,QMTTREN,QQYDRLPLT
1.46,6 of 6,KSSQSVLYESPNKNSVA,WASTRES,QQYHRLPLS
1.46,5 of 6,ALSQSMDMTSLNRNSVA,DLTTREN,QQYHRLPLS
1.51,6 of 6,KLSQITGHLSVSKNNVA,EMVTREN,QQYDRLPLS
1.59,6 of 6,MISDLMLKGSRNKNPIA,NASTREY,QQYHRLPLE
1.74,6 of 6,TLGAATLEESRNKNSVA,EMSLREP,QSYNRLPLS
2.03,5 of 6,KSSQSVLYESPNKNSVA,WASTRES,QQYHHLPLS
2.05,6 of 6,KSSQHVLYESRNKNSVA,YASTRES,QQYHRLPLS
2.13,6 of 6,HITMGMYVKGRHHSSIA,QAETRMQ,QQYDRLPLI
2.18,3 of 6,KSSPSVLWESLNKNSVA,RASTRES,QTYARLPLK
2.25,4 of 6,MLSQMTGLGMKVSNSVA,QASMRFN,QQYERLPLI
2.58,1 of 6,KSSQSMLSGSRNKNHVA,WASTRES,QQYHRLPLS
2.87,1 of 6,KSSTSNLGELRNKNSVA,WASMRES,QQYHRLPMS
2.88,6 of 6,MIAESVGYQSRNKNSVA,DNSTRGD,QCYDRLPLS
3.14,3 of 6,MLSDLVKMGSRNRNSVA,DNSTRGS,QQYDRLPLS
no signal,0 of 6,ILYESVGTLSRNKNSVA,DNSNRES,QQYDRLPLS
no signal,0 of 6,QSHQSILYESRNKNSVA,WASTRES,QQDHRLPLS
no signal,0 of 6,KSSQSDLYESRNKNSVA,WASTCES,QQYHRLPLS
no signal,0 of 6,KSSRSVTYGSRNGNSVA,WASTRES,QLYHRLPLS
no signal,0 of 6,KISQSVLYESMNKNSVA,EASTRES,QQYHRLEWF
no signal,0 of 6,KSSQSVLYESRNKNSVA,WASGRES,QQYHTLPLS
no signal,0 of 6,KSSQDVNYDSRNKNSVA,WRLTRER,QQYHELPLS

Excerpt, the final 4 entries:

{"CDR-L1": "KSSRSVTYGSRNGNSVA", "CDR-L2": "WASTRES", "CDR-L3": "QLYHRLPLS", "log10 Kd (nM), mean": "no signal", "seen in": "0 of 6"}
{"CDR-L1": "KISQSVLYESMNKNSVA", "CDR-L2": "EASTRES", "CDR-L3": "QQYHRLEWF", "log10 Kd (nM), mean": "no signal", "seen in": "0 of 6"}
{"CDR-L1": "KSSQSVLYESRNKNSVA", "CDR-L2": "WASGRES", "CDR-L3": "QQYHTLPLS", "log10 Kd (nM), mean": "no signal", "seen in": "0 of 6"}
{"CDR-L1": "KSSQDVNYDSRNKNSVA", "CDR-L2": "WRLTRER", "CDR-L3": "QQYHELPLS", "log10 Kd (nM), mean": "no signal", "seen in": "0 of 6"}

The authors' rule: three or more of the six replicates give a measured affinity, fewer mean a poor binder. Of ten entries with the parent sequence, four were seen in most replicates (averages 0.34 to 2.37), three in one and three in none, so single entries are noisy. The range of this assay differs from that of the first round, and the authors advise against merging the two. Background: pairings of all light chain designs with three empty control strains gave a value in 4% of cases (median 2.64, 5th percentile 1.59). Values in that range, when seen in few replicates, are hard to tell from nonspecific mating. Some sequences occur more than once in the pool; their replicates are pooled.

Source: Li et al. 2023 (doi:10.1038/s41467-023-39022-2), MIT Lincoln Laboratory and A-Alpha Bio; data file from the FLAb repository.